pKd: −log10 of the molar value. Several values for one entry are separate records, joined by “and”; a condition that tells them apart may be missing. Equal entries are not always repeated. Where two headings read alike, the source gives them in different places.
What was measured:
[1] = molecular target: actin filament barbed end (Oryctolagus cuniculus) (UniProt P68135); details: cited from earlier work
[2] = molecular target: actin filament barbed end (Oryctolagus cuniculus) (UniProt P68135); details: cited from earlier work; remark: listed apart in the source
[3] = molecular target: V-1 D44R (human) (UniProt P58546); assay: SPR; GST-fusion protein (GST-V-1, GST-CA or GST-CD) immobilised on a CM5 chip via anti-GST antibodies (up to 200 RU), CP perfused at 20 µl/min; 20°C; 50 mM KCl, 1 mM MgCl2, 0.005% Tween-20, 10 mM imidazole pH 7.0; 1:1 fit, KD from the kinetic rate constants (steady state for several fast-dissociating mutants)
[4] = molecular target: V-1 E78R (human) (UniProt P58546); assay: as above

For “actin capping protein (CP) (from UniProt P13127)”, the pKd [1] is given as 9.00 and 9.74.

In the case of “actin capping protein (CP) (from UniProt P47753)”, the pKd [2] is given as 7.42.

Work on “actin capping protein (CP), chicken α1/β1, CP_full (from UniProt P13127 1-286; P14315 1-277) (complex)” yielded a fold reduction of the affinity against the wild type proteins [3] of over 25 fold and a fold reduction of the affinity against the wild type proteins [4] of over 25 fold.

— PMC2897767, “Two Distinct Mechanisms for Actin Capping Protein Regulation—Steric and Allosteric Inhibition” (PLoS Biology, 2010)
